System: GFP, mCherry, Gli1, and Gli3T
Assay: Intein splicing across all four proteins tested in mammalian cells
Details: no 4-HT

B1: 30R3-1: evolved 4-HT-dependent intein (RecA intein with estrogen receptor ligand-binding domain), clone from 30° C. evolution, Round 3 (protein)
chain: CLAEGTRIFDPVTGTTHRIEDVVDGRKPIHVVAAAKDGTLLARPVVSWFDQGTRDVIGLRIAGGATVWATPDHKVLTEYGWRAAGELRKGDRVAGPGGSGNSLALSLTADQMVSALLDAEPPIPYSEYDPTSPFSEASMMGLLTNLADRELVHMINWAKRVPGFVDLTLHDQAHLLECAWLEILMIGLVWRSMEHPGKLLFAPNLLLDRNQGKCVEGMVEIFDMLLATSSRFRMMNLQGEEFVCLKSIILLNSGVYTFLSSTLKSLEEKDHIHRALDKITDTLIHLMAKAGLTLQQQHQRLAQLLLILSHIRHMSNKGMEHLYSMKYKNVVPLYDLLLEMLDAHRLHAGGSGASRVQAFADALDDKFLHDMLAEGLRYSVIREVLPTRRARTFDLEVEELHTLVAEGVVVHNC
- background splicing in the absence of 4-HT: ≤ 3%

Reference: patent US9200045B2, “Small molecule-dependent inteins and uses thereof” (President and Fellows of Harvard College, priority 2011, dated 2015)
